AlphaSeq binding of Ab-95 light chain variants to a spike HR2 peptide

Binding partner: SARS-CoV-2 spike HR2 peptide, sequence PDVDLGDISGINAS.

Parent scFv Ab-95: VH joined to VL by three GGGGS repeats. Changes lie in the light chain CDRs alone.
VH: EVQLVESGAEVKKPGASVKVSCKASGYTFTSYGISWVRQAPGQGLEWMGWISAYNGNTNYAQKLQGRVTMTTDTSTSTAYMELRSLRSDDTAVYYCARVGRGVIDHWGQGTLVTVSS
VL: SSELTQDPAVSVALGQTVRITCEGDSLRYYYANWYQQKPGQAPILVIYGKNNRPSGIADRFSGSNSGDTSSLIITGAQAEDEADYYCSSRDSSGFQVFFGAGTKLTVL

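The library (AAYL52) carries one to three amino acid substitutions per variant, with no insertions or deletions. The assay is AlphaSeq: two haploid yeast populations carry antibody and antigen on their surface. Pairs that bind mate more often; barcode pairs of the diploids are counted by sequencing. Scores were corrected for input abundance and mapped to Kd with protein pairs of known affinity run in the same pool. Mating was done three times.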

Positions count from residue 1 of the parent VL; E23N puts N in place of E. Numbers give log10(Kd / nM), so 0 is 1 nM and 3 is 1 µM. Smaller is tighter. A pair that was not seen in that replicate is written "nd"; this usually means weak binding, but a binder can also be missed.

Result 2.19, 2.46, 1.73, variant E23N R28E Y30D.
Result 3.50, 3.36, 3.04, variant D25M Y31F F98S.
Result 3.45, 3.33, 2.64, variant Y30I S92L V97L.
Result 3.87, 4.30, 2.75, variant E23M G24R R90E.
Result nd, nd, nd, variant D25W Y31L G94P.
Result nd, nd, nd, variant E23P R28F S88N.
Result nd, nd, 3.21, variant Y31A S93E G94K.
Result 2.83, 2.20, 1.98, variant Y30M S55P F98A.
Result 3.50, nd, nd, variant D25V N33F F95L.
Result nd, nd, nd, variant S26K S55E Q96T.
Result 2.53, 3.78, 3.11, variant Y29M G94S F95W.
Result 2.69, 3.28, 3.39, variant Y29V Y30K Q96P.
Result 1.74, 1.68, 1.56, variant Y29C Y30S R90T.
Result nd, nd, nd, variant N33A F95T Q96K.
Result 3.95, 2.92, nd, variant D25M L27D.
Result 2.32, 2.37, 1.79, variant S55V F98P.
Result 3.52, nd, 3.46, variant L27R Y31T F95I.
Result nd, nd, nd, variant K50T R90Y V97I.
Result 4.20, 4.33, nd, variant K50W R53M S55P.
Result 3.28, 4.43, 2.87, variant D25S R53C D91G.
Result 2.59, 3.07, 3.91, variant R90D S93H F98S.
Result 3.64, 5.72, nd, variant S55W S89K S92P.
Result nd, nd, nd, variant S26Q G49N S88D.
Result 1.97, 1.86, 1.11, variant Y29H S55D S89W.
Result nd, 3.46, nd, variant R90Q V97D.
Result nd, nd, nd, variant E23T G49I V97K.
Result nd, nd, 3.38, variant G24E P54C V97Q.
Result 5.75, 5.31, nd, variant N33A S88N.
Result 2.66, 2.91, 2.21, variant R28G N33V F95A.
Result 2.79, 3.29, 3.11, variant D25H S92A G94Q.
Result nd, nd, nd, variant N33I F95M F98D.
Result 2.47, 2.70, 2.33, variant E23I N52L S92K.
Result nd, 4.52, nd, variant R28F S55C.
Result nd, 2.83, 3.76, variant E23T N33Q.
Result nd, nd, nd, variant G24R P54A D91I.
Result 4.31, nd, 4.35, variant D25T S26T L27H.
Result 3.26, 3.87, 3.38, variant P54F S89Y R90Q.
Result 3.03, 2.91, 2.51, variant K50M F98L.
Result nd, 3.74, 4.40, variant S26R A32W D91G.
Result 5.11, nd, nd, variant L27H N33R.
Result nd, nd, nd, variant R90I G94C Q96N.
Result 5.36, nd, nd, variant D25L A32R N33Q.
Result 2.47, 2.79, 3.46, variant E23I P54G D91F.
Result 4.88, nd, 3.55, variant D25I G49V R90A.
Result 4.21, 3.45, 4.48, variant G24N P54Q S55V.
Result 2.13, 2.86, 3.02, variant R28T S88H D91R.
Result nd, nd, nd, variant R53F F98T.

The closing 7 entries, repeated:

The variant R90I G94C Q96N showed nd, nd, nd.
The variant D25L A32R N33Q showed 5.36, nd, nd.
The variant E23I P54G D91F showed 2.47, 2.79, 3.46.
The variant D25I G49V R90A showed 4.88, nd, 3.55.
The variant G24N P54Q S55V showed 4.21, 3.45, 4.48.
The variant R28T S88H D91R showed 2.13, 2.86, 3.02.
The variant R53F F98T showed nd, nd, nd.

For reference, the parent read 2.31 as the reference entry and 2.25 as a member of this library. Three control strains display no target. For library AAYL52, 28% of the pairings with them gave a signal, with a median of 3.91 and one signal in twenty below 2.90, so weak values seen in few replicates may be background.

The measurements come from Engelhart et al. 2022 (doi:10.1038/s41597-022-01779-4) through the FLAb antibody collection.